The target in assay [1] is T1, α7-nicotinic acetylcholine receptor (Rattus norvegicus, UniProt Q05941). Type of assay: binding.
Assay [2] addresses T1, α7-nicotinic acetylcholine receptor. The conditions noted are these: cited from earlier work.

Chains of the proteins cited; added tags and fusions are not shown. Residues count along the entry.
UniProt Q05941, 23-502: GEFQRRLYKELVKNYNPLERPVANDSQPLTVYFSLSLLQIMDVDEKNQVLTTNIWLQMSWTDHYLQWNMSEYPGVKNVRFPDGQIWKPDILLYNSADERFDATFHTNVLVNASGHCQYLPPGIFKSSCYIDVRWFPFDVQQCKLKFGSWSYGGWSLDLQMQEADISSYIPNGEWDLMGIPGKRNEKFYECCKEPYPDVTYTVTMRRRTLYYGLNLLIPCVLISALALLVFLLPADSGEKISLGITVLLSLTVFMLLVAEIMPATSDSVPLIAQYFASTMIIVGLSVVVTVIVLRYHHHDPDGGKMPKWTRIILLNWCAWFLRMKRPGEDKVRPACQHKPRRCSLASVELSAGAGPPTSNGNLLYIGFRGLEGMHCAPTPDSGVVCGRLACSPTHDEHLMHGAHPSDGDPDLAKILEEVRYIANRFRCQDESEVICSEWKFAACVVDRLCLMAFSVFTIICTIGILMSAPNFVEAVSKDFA

Take `CN1CCC[C@H]1c1cccnc1` [(S)-nicotine, reference compound]: the “Displacement of [3H]-epibatidine” value in assay [1] was “fully displaced”. Turning to “[^125I]-α-bungarotoxin [[^125I]-α-bungarotoxin]”, the Kd in assay [2] was 380 pM.

(Values after paper PMC3534778 (European journal of pharmacology, 2012).)
